The results in this text go back to ChEMBL document CHEMBL1155538 (Bioorg Med Chem Lett, 2010).

Amino acid sequences for entries named in this document (tags omitted).
UniProt P31645, whole entry: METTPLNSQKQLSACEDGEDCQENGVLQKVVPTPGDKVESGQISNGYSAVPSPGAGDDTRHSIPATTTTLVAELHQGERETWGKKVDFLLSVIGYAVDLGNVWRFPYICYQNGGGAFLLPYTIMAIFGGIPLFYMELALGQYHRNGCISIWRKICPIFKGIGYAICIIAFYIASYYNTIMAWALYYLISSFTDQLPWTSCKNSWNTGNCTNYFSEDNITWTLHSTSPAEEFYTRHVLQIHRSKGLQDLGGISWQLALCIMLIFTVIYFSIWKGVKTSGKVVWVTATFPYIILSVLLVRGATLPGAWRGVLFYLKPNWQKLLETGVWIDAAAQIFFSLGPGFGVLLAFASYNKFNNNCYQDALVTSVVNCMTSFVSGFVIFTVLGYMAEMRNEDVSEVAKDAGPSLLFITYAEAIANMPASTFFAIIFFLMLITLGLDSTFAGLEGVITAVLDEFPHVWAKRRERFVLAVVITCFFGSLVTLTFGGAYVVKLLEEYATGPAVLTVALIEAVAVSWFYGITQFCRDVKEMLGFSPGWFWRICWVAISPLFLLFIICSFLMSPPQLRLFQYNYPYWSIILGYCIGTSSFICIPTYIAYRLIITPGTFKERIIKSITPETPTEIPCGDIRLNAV
UniProt P23975, whole entry: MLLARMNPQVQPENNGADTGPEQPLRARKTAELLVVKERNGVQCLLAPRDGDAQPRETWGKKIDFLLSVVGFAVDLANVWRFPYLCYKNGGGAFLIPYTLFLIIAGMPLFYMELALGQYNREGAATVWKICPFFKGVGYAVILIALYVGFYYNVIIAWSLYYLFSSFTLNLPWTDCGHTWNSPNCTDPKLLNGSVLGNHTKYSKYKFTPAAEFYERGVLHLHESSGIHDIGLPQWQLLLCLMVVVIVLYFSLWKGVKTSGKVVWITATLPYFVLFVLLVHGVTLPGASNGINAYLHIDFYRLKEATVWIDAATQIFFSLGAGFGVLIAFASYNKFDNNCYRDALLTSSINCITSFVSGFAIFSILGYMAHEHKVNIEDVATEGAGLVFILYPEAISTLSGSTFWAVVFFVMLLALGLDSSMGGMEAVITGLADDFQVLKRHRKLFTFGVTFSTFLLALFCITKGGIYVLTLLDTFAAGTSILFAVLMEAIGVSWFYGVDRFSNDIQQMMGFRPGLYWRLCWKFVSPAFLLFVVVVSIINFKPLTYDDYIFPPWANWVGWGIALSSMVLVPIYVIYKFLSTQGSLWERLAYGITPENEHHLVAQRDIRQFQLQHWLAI
UniProt Q01959, whole entry: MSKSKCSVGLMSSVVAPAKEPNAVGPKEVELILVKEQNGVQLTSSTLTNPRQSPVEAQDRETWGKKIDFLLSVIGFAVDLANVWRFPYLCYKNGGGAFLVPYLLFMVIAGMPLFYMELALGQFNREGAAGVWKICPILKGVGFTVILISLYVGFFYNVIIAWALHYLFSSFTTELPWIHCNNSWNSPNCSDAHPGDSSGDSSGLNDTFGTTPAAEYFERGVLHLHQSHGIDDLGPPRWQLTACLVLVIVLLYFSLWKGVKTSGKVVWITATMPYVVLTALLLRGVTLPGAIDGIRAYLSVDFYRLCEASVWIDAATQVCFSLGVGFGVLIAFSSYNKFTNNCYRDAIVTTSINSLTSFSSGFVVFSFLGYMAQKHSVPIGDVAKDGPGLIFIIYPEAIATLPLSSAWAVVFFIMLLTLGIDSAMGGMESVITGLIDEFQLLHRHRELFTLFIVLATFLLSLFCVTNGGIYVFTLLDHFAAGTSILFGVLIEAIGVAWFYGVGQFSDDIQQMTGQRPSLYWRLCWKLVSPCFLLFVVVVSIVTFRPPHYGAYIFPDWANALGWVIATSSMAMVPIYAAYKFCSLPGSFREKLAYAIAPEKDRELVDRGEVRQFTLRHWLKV

Common to all, as to conditions: hek293
In test [1] the target is Sodium-dependent serotonin transporter (Homo sapiens, UniProt P31645).
In test [2] the target is Sodium-dependent noradrenaline transporter (Homo sapiens, UniProt P23975).
In test [3] the target is Sodium-dependent dopamine transporter (Homo sapiens, UniProt Q01959).

Some results are limits rather than exact numbers.

Regarding `Fc1cccc(OC(F)F)c1CC(c1ccccc1)N1CCNCC1` (stereo unspecified), the Ki in test [1] is 19 nM; in test [2], 58 nM; in test [3], greater than 3160 nM.

As for `COc1cccc(F)c1CC(c1ccccc1)N1CCNCC1` (stereo unspecified), the Ki came to 9 nM in test [1], 27 nM in test [2] and 2370 nM in test [3].
